Experimental data: patent publication US20250127801A1, “BRIDGED TRICYCLIC CARBAMOYLPYRIDONE COMPOUNDS AND USES THEREOF” (priority 2023, published 2025)

Experiment: Thermodynamic solubility assay
Settings: 24-hour incubation, ambient temperature (22.3-23.8° C.), HPLC-UV 280 nm

## CC1=NO[C@@]2(CC[C@H](C)N3C[C@H]2n2cc(C(=O)NCc4ccc(F)cc4F)c(=O)c(OC(=O)N(C)C[C@@H]4CCCN4C(=O)OCOP(=O)(O)O)c2C3=O)C1
  Thermodynamic FaSSIF Solubility @ 24 h: 4630 µg/mL
